Details: rat, in vivo
Description: The peptide stearoyl-[K(DOTA[^68Ga])]3-[…] (SEQ ID NO:15)-amide was dissolved in citrate buffer (pH 8.0)+4% BSA and injected i.v. in the tail vene of tumour bearing WAG/Rij rats. The rats were orthopically injected with 1×10^6 syngenic colon carcinoma cells (CC531 cells) 10 days prior to the measurements. At the day of measurement the rats received the peptide in a concentration of 400 nmol/kg body weight. During the experiments the rats were anaesthetised by isoflurane and kept at 37° C.

For “Fluodeoxyglucose(^18F) [^18F-FDG, reference compound]”, the “enrichment of counterstain (PET)” value was “enriched in organs consuming high amounts of glucose”.

From US10513539B2, “Hydrophobic modified peptides and their use for liver specific targeting” (Ruprecht-Karls-Universitat Heidelberg, priority 2011, dated 2019)
